From publication PMC8284926 (Journal of the American Chemical Society, 2021)

Tested on: HeLa cells
Assay: Cytotoxicity in HeLa cells
Conditions: bleomycin 2 μM, alone

bleomycin
cytotoxicity: 22%
